Test results from US20130252818A1, “AMORPHOUS BIOINORGANIC IONIC LIQUID COMPOSITIONS COMPRISING AGRICULTURAL SUBSTANCES” (priority 2012, published 2013).

Assay: Thermogravimetric analysis (TGA), decomposition temperature
Format: physicochemical

Ethambutol-(HCl)2—(ZnCl2)2
ΔTdec (increase in decomposition temperature relative to HCl starting material): −33.6 °C
